Test results from patent publication EP4837574A1, “USE OF DNJ OR DERIVATIVE THEREOF IN PREPARING ANTI-SENESCENCE DRUG” (dated 2026).

Legend:
[1] = system: human iPSC-derived mesenchymal stem cells (iPSC-MSC); assay: SA-β-Gal staining, H2O2-induced senescence, pre-administration (Example 7); conditions: pre-administration 24 hours; 40 µM H2O2 2 hours, then new medium 24 hours; FIG. 15
Procedure: The workflow for SA-β-Gal staining of the cells is as follows: For the cells cultured in a 6-well plate, a cell culture solution was sucked away, the cells were washed 1 time with PBS, and 1 mL of an SA-β-Gal staining fixative was added for fixation at room temperature for 15 minutes. For other types of culture plates, the dosages of the fixative and subsequent solutions were used in operation with reference to this ratio. The cell fixative was sucked away, and the cells were washed 3 times with PBS, for 3 minutes each time. PBS was sucked away, and 1 mL of a staining working solution was added to each well. A method for formulating the staining working solution is as follows: A β-galactosidase staining solution A (10 µL), a β-galactosidase staining solution B (10 µL), a β-galactosidase staining solution C (930 µL), and an X-Gal solution (50 µL) were used. The cells were incubated overnight at 37°C, and the 6-well plate was sealed with a parafilm or a plastic wrap to prevent evaporation. Photographing was performed for record using a 20× objective under a microfluidic live cell real-time analysis system (Thermo), cell counting was performed using ImageJ software (National Institutes of Health, v 1.8.0), and ANOVA data analysis of multiple groups (mean ± SD) was performed using Graphpad Prism software (GraphPad Software, v 9.0.0).
Culture conditions for human iPSC-derived mesenchymal stem cells (iPSC-MSC) are as follows: The cells were cultured in a MesenCult-ACF Plus Medium (STEMCELL, Cat#05446) and passaged and seeded when cultured to a density of 70% to 80% in a culture dish. After the cells were washed 1 time with DPBS (Gibco), an ACF Enzymatic Dissociation Solution (STEMCELL, Cat#05426) was added for digestion for 2-3 minutes, and then an ACF Enzyme Inhibition Solution (STEMCELL, Cat#05426) was added to terminate the digestion. The cells were pipetted to be detached, collected into a 15 mL centrifuge tube, and centrifuged at 300 G for 8 minutes. The supernatant was discarded, a new MesenCult-ACF Plus Medium was added, and the cells were pipetted uniformly, seeded into a 12-well or 24-well plate (at a density of 70% to 80%), and cultured in a 5% CO2 incubator at 37°C. After cell adherence, the next operation was performed.
The anti-aging activity of drugs was detected in iPSC-MSC. In iPSC-MSC, stimulation was performed with 40 µM H2O2 for 2 hours, followed by replacement with a new culture medium for continued culture for 24 hours to construct a cell senescence model. Compared with a control group, a significant increase in the number of SA-β-Gal staining-positive cells in an H2O2 group confirms successful establishment of an iPSC-MSC senescence model. The pharmacological activity of DNJ or its derivatives was detected in the method of pre-administration treatment for 24 hours.

SASP factors = assay: qRT-PCR of SASP factor mRNA, H2O2-induced senescence of Huvec cells, pre-administration (Example 8); conditions: 30 µM DNJ pre-administration 24 hours, then 200 µM H2O2 24 hours; compared with H2O2 group; FIG. 16
Description: The activity of drugs to inhibit a senescence-associated inflammatory phenotype was detected in a stress-induced senescence model of human umbilical vein endothelial cells induced by H2O2. […]
The operation procedure for cell RNA extraction is as follows: A culture solution was sucked out from a culture dish, and the cells were washed once with a 1× PBS buffer solution. […] RNA concentrations of samples were detected using a Nano-100 micro-spectrophotometer, RNA purities were detected based on absorbance at 260/280 nm, and the samples were finally stored at -80°C.
The operation procedure for reverse transcription and qRT-PCR reactions of cell RNA samples is as follows: • (1) Removal of genomic DNA. According to the corresponding RNA concentrations, the required volumes of RNase free water and RNA were calculated. […]

OC[C@H]1NC[C@H](O)[C@@H](O)[C@@H]1O
number of SA-β-Gal staining-positive iPSC-MSC cells [1]: reduce | increase in the mRNA expression of SASP factors (SASP factors): significantly inhibited
